## scFv variants of Ab-14 (heavy chain) against a SARS-CoV-2 spike peptide

The measurements come from Li et al. 2023 (doi:10.1038/s41467-023-39022-2) through the FLAb antibody collection.

The target is the same throughout: PDVDLGDISGINAS, from the HR2 region of SARS-CoV-2 spike.

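Phage display of a naive human antibody library on the peptide gave the parent. This is the validation round: designs drawn from the data on random variants, tested in the same kind of assay. Group labels follow the data file (Ctrl: baseline library sampled from a position-specific scoring matrix, with some repeated check sequences; Rand: our label for a block that the file lists under HC and that is probably the random mutants of the ten best first-round binders; GP: Gaussian process model; GPLM: also part of the Gaussian process libraries; HC: hill climbing; Gen: genetic algorithm; Gibbs: Gibbs sampling; a sequence that several methods proposed may carry one label only). The assay is AlphaSeq: two haploid yeast populations carry antibody and antigen on their surface. Binding brings cells together so that they mate, and sequencing counts the barcode pairs among the diploids. Read counts were normalised to the haploid input and turned into Kd by a linear fit to BCL2-family pairs of known affinity, for each replicate. Mating was done six times.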

Ab-14 is the parent antibody, in scFv form: VH, then the linker GGGGSGGGGSGGGGS, then VL. The light chain is unchanged in all variants.
VH: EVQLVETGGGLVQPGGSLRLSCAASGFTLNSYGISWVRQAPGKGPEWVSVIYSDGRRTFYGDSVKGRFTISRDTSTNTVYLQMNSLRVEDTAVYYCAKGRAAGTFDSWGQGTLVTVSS
VL: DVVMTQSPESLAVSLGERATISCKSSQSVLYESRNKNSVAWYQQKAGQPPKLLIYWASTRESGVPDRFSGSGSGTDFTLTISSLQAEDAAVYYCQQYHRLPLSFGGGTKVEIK

The parent's heavy chain CDRs are GFTLNSYGIS, VIYSDGRRTFYGDSVK, GRAAGTFDS; each variant's own CDRs replace them letter for letter.
Variants here have at most six changes.
Scale: log10 of Kd in nM, estimated from mating counts; low values are strong binders.
The mean shown is taken over the replicates in which the pair was detected.
An entry "nd" has no value in the source: the pair was not observed among the diploids in that replicate. This suggests poor binding but is not conclusive.
Values of this round are not directly comparable with the first-round values of the same sequences.

- GFTLNEYGIS / VIYSDGRRTFYGDHVK / GRAALTFIS [Rand] = nd, nd, nd, nd, nd, nd
- GFSLNSYGIS / VIYSDGKRTFYGDSVK / GRTAGTFDS [GPLM_Gen] = 0.49, 0.22, 0.28, 0.38, 0.43, 0.19 (mean 0.33)
- GFTLNEYGIS / VIYSDGRRTFYGDSVK / GRTAGTFDI [GPLM_Gen] = 1.48, 1.01, nd, 0.75, 1.50, 0.85 (mean 1.12)
- GFELNSYGIS / VIYSDGRRTFYGDSVK / GAEAGTFDS [GP_Gen] = 0.51, 0.34, -0.56, -0.25, 0.24, 1.56 (mean 0.31)
- GFPLNEYGIS / VIYSDGRRTWYGDSVK / GRTAGTFDS [GP_Gibbs] = 0.12, -0.08, -0.08, -0.32, -0.19, 0.30 (mean -0.04)
- GFTLNSYGIS / VIYSDGRRTFYGDSVS / GRAADMKDS [Ctrl] = nd, nd, nd, nd, nd, nd
- GFSLNSYGIS / VIYSDGRRTFYADAVK / GKTAGTFDS [GP_Gen] = 0.00, 0.04, -0.37, 0.02, -0.25, -0.04 (mean -0.10)
- EFDLNSYGIS / VIYSDGRRTFYSDSVK / GEAGGTFDS [GP_HC] = 1.47, 1.06, nd, nd, nd, nd (mean 1.26)
- GFSLNMYGIS / VIYSDGRRTFYSDSVK / GKAAGTFDS [GP_Gibbs] = 0.70, 0.71, 0.21, 0.48, 0.27, 0.59 (mean 0.49)
- GFELNSYGIS / VIYSDGRRTFYGDSVK / GRAAGTFDT [Ctrl] = 0.73, 0.78, 0.74, 0.58, 0.69, 0.65 (mean 0.69)
- GKTLNSYGIS / VIYSDGERTFYGDSVK / GRNAGQFDS [Ctrl] = nd, nd, nd, 2.27, nd, nd
- GFTLNSYGIS / VIYSDGRRTFYGDSVF / GRWAGTFDS [Ctrl] = nd, nd, nd, nd, nd, nd
- KFDLNSYGIS / VIYSDGRRTFYGDSVK / GREAGTFDK [GP_Gibbs] = nd, nd, nd, nd, nd, nd
- GFTLNSYGIS / VIYADGRRTAYADSVK / GRAAGCFIS [Ctrl] = nd, nd, nd, nd, nd, nd
- GFTLNDYGIS / VIYSDGKRTMYMDSVK / GRAAGTFDS [GP_HC] = nd, nd, nd, nd, nd, 0.30
- GFSLNTYGIS / VIYSDGRRTFYKDSVK / GKAAGTFDS [GP_Gibbs] = 0.10, 0.48, 0.48, 0.15, 0.10, 0.89 (mean 0.37)
- GFSLNSYGIS / VIYSDGRRTFYGDSVK / GRAAGTFNS [Ctrl] = nd, nd, nd, nd, nd, nd
- GFTLNSYGIS / VIYSDGRRTFYGDSVK / GRAAGTFDN [Ctrl] = nd, nd, nd, nd, nd, nd
- GFNLNSYGIS / VIYSDGRRTAYHDSVK / GRAAGTFDS [GP_HC] = 0.03, nd, 0.37, 0.30, 2.15, nd (mean 0.71)
- GFTLNSYGIS / VIYSDGRRTFYGDAVK / GRTAGTFDS [GPLM_Gen] = nd, 0.36, 1.12, 1.49, 1.14, 1.71 (mean 1.16)
- GFDLNMYGIS / VIYSDGRRTFYGDQVK / GRTAGTFDS [GP_Gen] = nd, nd, nd, nd, nd, nd
- GFTVNSYGIS / VIYSDGRRTFYGDSVK / GREAGTFDS [Ctrl] = 2.62, 1.47, 2.04, 2.63, 2.82, 2.01 (mean 2.26)
- GFTLNSYGIS / VIYSDGRRSFYGDSVK / GEAAGTFDS [Ctrl] = 1.09, 1.46, 0.63, 0.68, 0.70, 2.29 (mean 1.14)
- GFTLRDYGIS / VIYSDGRRTFYTDSVK / GEASGTFDS [Ctrl] = 2.34, 2.84, 2.13, 2.05, 2.28, 2.05 (mean 2.28)
- GFSLNSYGIS / VIYSDGRRTFYSDSVK / GKTAGTFDS [GPLM_Gibbs] = -0.38, -0.18, -0.52, -0.42, -0.87, -0.49 (mean -0.48)
- GFTLNSYGIS / VIYSDGMRTFYSDSVK / GKAAGTFDS [GPLM_Gen] = -0.02, nd, nd, nd, 0.38, 0.89 (mean 0.42)
- GFTLNEYGIS / VIYSDGRETFYADSVK / GRAALTFDS [Ctrl] = nd, nd, nd, nd, nd, nd
- GFTLNSYGIS / VIYSDGRRTFYVDDVK / GQEAGTFDT [GP_Gibbs] = 0.27, 0.80, nd, 0.14, 0.84, 0.53 (mean 0.52)
- GFNLNSYGIS / VIYSDGRRTFYGDSVK / GNEAGTFDT [GP_Gen] = -0.36, -0.37, -0.31, -0.78, -0.59, -0.26 (mean -0.45)
- GFTLNSYGIS / VIYSDGRRTFYGDSVK / GRRAVTFDS [Ctrl] = nd, nd, nd, nd, nd, nd
- GFDLNSYGIS / VIYSDGRRTFYGDSVK / GRWAGTFES [GP_HC] = nd, nd, nd, nd, 1.92, nd
- GFDLNQYGIS / VIYSDGRRTFYSDSVK / GRQAGTFDS [GP_HC] = -0.30, -0.66, -0.21, -0.23, -0.66, -0.46 (mean -0.42)
- GFHLNSYGIS / VIYSDGRRTFYTDSVK / GQAAGTFDS [GP_Gen] = 1.80, 1.46, nd, nd, 2.09, nd (mean 1.78)

A selection of 3 entries from above:

- GFTLNSYGIS / VIYADGRRTAYADSVK / GRAAGCFIS [Ctrl] = nd, nd, nd, nd, nd, nd
- GFTLNEYGIS / VIYSDGRRTFYGDSVK / GRTAGTFDI [GPLM_Gen] = 1.48, 1.01, nd, 0.75, 1.50, 0.85 (mean 1.12)
- GFTLNSYGIS / VIYSDGRRTFYVDDVK / GQEAGTFDT [GP_Gibbs] = 0.27, 0.80, nd, 0.14, 0.84, 0.53 (mean 0.52)

Of ten entries with the parent sequence, four were seen in most replicates (averages 0.34 to 2.37), three in one and three in none, so single entries are noisy.
The authors averaged sequences with at least three values out of six and counted those with two or fewer as poor binders.
Three control strains display no target. For all heavy chain designs, 1% of the pairings with them gave a signal, with a median of 2.08 and one signal in twenty below 0.84, so weak values seen in few replicates may be background.